Patent US20040097712A1 (Amgen, published 2004)

Columns and labels:
[1] = biological target: T1, biotinylated IL-1R1 (recombinant, on streptavidin-coated beads) (UniProt P14778 18-336, limits assumed, biotinylated); assay: ECL bead competition assay: ruthenium-IL-1RAcP (5 nM) binding to biotinylated IL-1R1 with IL-1β (1 nM), complex formation
T1 construct: also called receptor
T1 sequence (looked up): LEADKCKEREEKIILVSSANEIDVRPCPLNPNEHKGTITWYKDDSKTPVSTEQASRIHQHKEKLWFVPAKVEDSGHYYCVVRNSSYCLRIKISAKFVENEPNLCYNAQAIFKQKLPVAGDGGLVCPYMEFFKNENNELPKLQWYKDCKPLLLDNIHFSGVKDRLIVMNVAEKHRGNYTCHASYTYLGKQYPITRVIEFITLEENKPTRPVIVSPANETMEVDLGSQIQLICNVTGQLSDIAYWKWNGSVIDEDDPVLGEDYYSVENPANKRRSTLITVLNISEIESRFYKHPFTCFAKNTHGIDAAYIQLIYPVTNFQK

[2] = biological target: T2, IL-1R1 on human cells (primary human chondrocytes; human whole blood) (human, UniProt P14778 18-569); assay: cell-based or functional assay
T2 sequence (looked up): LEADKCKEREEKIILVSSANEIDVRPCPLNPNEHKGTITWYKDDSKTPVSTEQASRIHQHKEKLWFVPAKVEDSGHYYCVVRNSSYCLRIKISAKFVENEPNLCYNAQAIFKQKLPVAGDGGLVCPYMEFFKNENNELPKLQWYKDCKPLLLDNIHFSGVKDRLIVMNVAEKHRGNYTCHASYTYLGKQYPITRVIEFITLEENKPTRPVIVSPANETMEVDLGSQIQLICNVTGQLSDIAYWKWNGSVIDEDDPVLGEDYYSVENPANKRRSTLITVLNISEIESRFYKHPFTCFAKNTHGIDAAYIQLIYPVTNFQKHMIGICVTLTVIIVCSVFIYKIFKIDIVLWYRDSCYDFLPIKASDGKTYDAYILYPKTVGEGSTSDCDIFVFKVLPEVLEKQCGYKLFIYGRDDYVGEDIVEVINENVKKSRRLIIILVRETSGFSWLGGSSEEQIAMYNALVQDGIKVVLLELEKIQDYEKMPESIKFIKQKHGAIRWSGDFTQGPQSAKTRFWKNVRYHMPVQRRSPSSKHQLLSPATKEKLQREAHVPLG

[3] = biological target: T2, IL-1R1 on human cells (primary human …); assay: cell-based or functional assay; remark: listed apart in the source
[4] = biological target: T2, IL-1R1 on human cells (primary human …); assay: cell-based or functional assay; remark: listed apart in the source

B1: Interleukin-1 receptor antagonist (IL-1ra) (ligand, human, UniProt P18510 26-177, looked up)
chain: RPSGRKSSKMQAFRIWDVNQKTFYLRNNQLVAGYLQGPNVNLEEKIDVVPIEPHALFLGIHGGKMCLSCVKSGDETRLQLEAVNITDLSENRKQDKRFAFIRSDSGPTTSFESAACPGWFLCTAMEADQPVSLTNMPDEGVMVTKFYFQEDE
modifications: ruthenium tag in Example 3
notes: also called rIl-1ra; rIL-1ra
IC50 [1]: 0.555 nM
IC50, inhibition of IL-1-induced IL-6 production in human whole blood, composite (pooled data) [2]: 0.264 nM
IC50, inhibition of IL-1-induced IL-6 production in human whole blood, donor 1047 [2]: 0.241 nM
IC50, inhibition of IL-1-induced IL-6 production in human whole blood, donor 1319 [2]: 0.381 nM
IC50, inhibition of IL-1β induced IL-6 production in primary human chondrocytes (Table 4A) [3]: 0.032 nM
IC50, inhibition of IL-1β induced IL-6 production in primary human chondrocytes (Table 4B) [4]: 0.02 nM
